# scFv variants of Ab-14 (light chain) against a SARS-CoV-2 spike peptide

Values reported by Engelhart et al. 2022, doi:10.1038/s41597-022-01779-4 (FLAb copy).

The target is the same throughout: PDVDLGDISGINAS, from the HR2 region of SARS-CoV-2 spike.

Parent: Ab-14, a human scFv built as VH, a (GGGGS)3 linker, VL. Only the CDRs of the light chain vary.
VH: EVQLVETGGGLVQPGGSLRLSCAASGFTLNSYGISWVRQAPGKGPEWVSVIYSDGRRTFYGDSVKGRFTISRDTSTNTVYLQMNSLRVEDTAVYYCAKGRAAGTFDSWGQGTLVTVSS
VL: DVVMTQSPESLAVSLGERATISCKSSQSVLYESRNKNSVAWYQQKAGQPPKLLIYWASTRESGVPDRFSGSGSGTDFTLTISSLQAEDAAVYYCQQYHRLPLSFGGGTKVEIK

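Phage display of a naive human antibody library on the peptide gave the parent. AAYL50 was designed without a model: most single CDR substitutions and a random sample of double and triple ones. AlphaSeq pools MATa yeast showing the antibodies with MATalpha yeast showing the peptide. The frequency of each diploid, read from paired DNA barcodes, reflects how well the two displayed proteins bind. Scores were corrected for input abundance and mapped to Kd with protein pairs of known affinity run in the same pool. Mating was done three times.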

Changes read parent residue, position, new residue, counted from the first residue of the VL shown.
Every variant below is changed at K24 of the VL (sequential numbering).
The Kd shown is the geometric mean over detected replicates; a lower Kd is a better binder.
"nd" means that the variant was in the library but no mating with the target was seen in any replicate; the authors take this as a sign of poor binding, and no number exists.
Nonspecific signal, from three strains lacking the peptide, appeared in 18% of pairings of library AAYL50, centred on 15 µM (5% of these signals below 970 nM); values are not corrected for it.

changes,Kd,detected
K24Y+W56M+Y97E,nd,0/3
K24Y+W56C+A57P,26 µM,3/3
K24F+S62L,59 nM,3/3
K24S+R99E+L100P,4.6 nM,3/3
K24E+S28W+A57R,nd,0/3
K24R+N35P+W56P,55 µM,3/3
K24V+Y31T+L100C,22 nM,3/3
K24Y+Q95S+Y97C,4.5 µM,1/3
K24S+R60D+H98R,1.9 µM,1/3
K24R+S28H+V39S,850 µM,1/3
K24Q+S25N+Q96D,27 nM,3/3
K24W+S33N+H98D,860 nM,3/3
K24Y+Y31H+E61M,230 nM,3/3
K24W+S38P+S103L,330 nM,3/3
K24R+S38C+L100C,3.7 µM,1/3
K24E+V39D+A40R,nd,0/3
K24P+S58E+Q95F,1.4 µM,1/3
K24V+S103M,17 nM,3/3
K24Q+S28K+Y97F,500 nM,1/3
K24S+E32T+S33G,16 nM,3/3
K24T+S26P,590 nM,3/3
K24N+K36G,41 nM,3/3
K24Q+S33I+A57D,nd,0/3
K24F+K36S+W56C,48 nM,3/3
K24I+R60V+P101T,450 nM,2/3
K24L+S28R+L102K,100 nM,3/3
K24V+R34V+H98Y,10 nM,3/3
K24L+A40Y+S58M,nd,0/3
K24Y,3.8 nM,3/3
K24L+L30I+T59S,66 µM,1/3
K24L+L30S+S58R,1.4 µM,3/3
K24G+E32K+Q96N,890 nM,2/3
K24I+S25R+R60H,610 nM,1/3
K24P+L30E+E61R,nd,0/3
K24D+S58M+Q95A,nd,0/3
K24R+R60L+E61A,7.0 nM,3/3
K24A+V39E+S103H,nd,0/3
K24R,160 nM,2/3
K24D+S38W,21 µM,1/3
K24L+S26G+K36A,5.1 nM,3/3
K24N+S28G+W56Y,38 nM,3/3
K24Q+L30E+A57K,7.2 µM,2/3
K24Y+N37A+Y97V,7.1 µM,1/3
K24A+V29M+S103M,85 nM,3/3
K24G+S26W+V39H,2.3 µM,1/3
K24A+N35S+S58M,1.6 µM,1/3
K24P+S25F+V39I,55 nM,3/3
K24P+Y97L+P101Q,2.0 µM,1/3
K24L+S33V+Q95T,nd,0/3
K24W+S33Q,86 nM,3/3
K24D+S28D+Q95C,5.6 µM,2/3
K24H+R34E+S62A,23 nM,3/3
K24F+N37F+A57L,nd,0/3
K24A+E61L+Q95R,110 nM,3/3
K24I+S26Y+W56V,130 µM,2/3
K24P+L100P,3.8 µM,2/3
K24F+W56A+Y97C,2.1 nM,3/3
K24H+L30P+Y31W,200 nM,3/3
K24I+S62M+Q95S,nd,0/3
K24V+S33G+S62E,9.3 nM,3/3
K24F+A57I+E61R,nd,0/3
K24T+Q96V+L100M,nd,0/3
K24E+S33P+W56C,34 nM,3/3
K24M+Y31G+S38G,140 nM,3/3
K24G+S28E+A40V,8.4 µM,1/3

Parent in this assay: reference entry 4.4 nM, copy in this library 48 nM.